Earlier results as cited in patent publication US10195284B2, “Compositions and methods for controlled localized delivery of bone forming therapeutic agents” (University of Rochester, priority 2013, dated 2019).

Settings: rats; cited from earlier work

Maraviroc
half-life: 54 min
